Results: ChEMBL document CHEMBL4020802, “Fused bi-heteroaryl substituted hydantoin compounds as TACE inhibitors” (Bioorg Med Chem Lett, 2017)

System: Blood
Experiment: Antiinflammatory activity in human whole blood assessed as inhibition of LPS-induced TNF-alpha release preincubated for 1 hr followed by LPS addition after 3.5 hrs by ELISA method
Assay type: functional

IC50: 187 nM
Compound: COc1ccc2c(c1)C(=O)N(C[C@@]1(c3cc4nc(N(c5cn[nH]c5)C5CCN(C)CC5)ccc4o3)NC(=O)NC1=O)C2
